The target in the experiment is T1, WT CB2 (Homo sapiens, UniProt P34972).
T1 construct: expressed in transfected cells; host or cells: HEK293
Put plainly: pGlo-Sensor-22F cAMP accumulation assay, WT CB2. Format: cell-based. The following applies: pEC50/pIC50 values. The text has this: Compounds were drawn using ChemDraw.

Chains of the proteins cited; added tags and fusions are not shown.
UniProt P34972, whole entry: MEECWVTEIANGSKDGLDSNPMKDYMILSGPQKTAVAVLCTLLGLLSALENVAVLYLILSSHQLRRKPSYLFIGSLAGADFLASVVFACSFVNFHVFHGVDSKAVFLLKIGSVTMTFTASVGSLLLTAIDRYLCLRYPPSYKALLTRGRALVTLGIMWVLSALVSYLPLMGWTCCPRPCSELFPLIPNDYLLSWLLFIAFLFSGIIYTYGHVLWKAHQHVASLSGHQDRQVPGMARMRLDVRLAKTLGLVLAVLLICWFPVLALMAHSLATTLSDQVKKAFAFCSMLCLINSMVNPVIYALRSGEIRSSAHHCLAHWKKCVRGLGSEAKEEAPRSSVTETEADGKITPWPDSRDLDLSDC

Take `C=C(C)[C@@H]1CCC(C)=C[C@H]1c1c(O)cc(CCCCC)cc1O` [CBD, Cannabidiol]: a half-maximal effect (EC50) was put at 2130 nM.
